# Test results from patent US20170146519A1, “STING AGONISTS AND METHODS OF SELECTING STING AGONISTS” (priority 2015, published 2017).
# B1: IFNβ: Human recombinant IFNβ obtained from PBL, control stimulus at 1000 U/mL (protein, UniProt P01574 22-187, looked up)
# Interferon beta: MSYNLLGFLQRSSNFQCQKLLWQLNGRLEYCLKDRMNFDIPEEIKQLQQFQKEDAALTIYEMLQNIFAIFRQDSSSTGWNETIVENLLANVYHQINHLKTVLEEKLEKEDFTRGKLMSSLHLKRYYGRILHYLKAKEYSHCAWTIVRVEILRNFYFINRLTGYLRN
# How the values were obtained:
# [1] = system: IRF3/IFN-dependent genes in THF; type: cell-based, human
# Sindbis virus (SINV) = type: cell-based
# Mx2 and ISG56 proteins = type: cell-based, human
molecule,measurement,setting,value
B1,Mx2 and OAS mRNA induction,[1],substantial induction
same,SINV replication in cells lacking IRF3,Sindbis virus (SINV),capable of inhibiting virus replication
same,SINV replication in cells lacking IPS-1,Sindbis virus (SINV); 48 h,diminishes replication of all three virus types by multiple logs
same,SINV replication in cells lacking STAT1,Sindbis virus (SINV); 48 h,profound
same,Mx2 and ISG56 proteins in STAT1-deficient cells,Mx2 and ISG56 proteins,still detectable
same,synthesis of Mx2 and ISG56 proteins,Mx2 and ISG56 proteins,capable of triggering synthesis of Mx2 and ISG56 proteins
